# Data: PubChem BioAssay (EPA / NIEHS)
# By UniProt entry, the sequences of proteins in these tests, tags left out.
# UniProt P40763, whole entry: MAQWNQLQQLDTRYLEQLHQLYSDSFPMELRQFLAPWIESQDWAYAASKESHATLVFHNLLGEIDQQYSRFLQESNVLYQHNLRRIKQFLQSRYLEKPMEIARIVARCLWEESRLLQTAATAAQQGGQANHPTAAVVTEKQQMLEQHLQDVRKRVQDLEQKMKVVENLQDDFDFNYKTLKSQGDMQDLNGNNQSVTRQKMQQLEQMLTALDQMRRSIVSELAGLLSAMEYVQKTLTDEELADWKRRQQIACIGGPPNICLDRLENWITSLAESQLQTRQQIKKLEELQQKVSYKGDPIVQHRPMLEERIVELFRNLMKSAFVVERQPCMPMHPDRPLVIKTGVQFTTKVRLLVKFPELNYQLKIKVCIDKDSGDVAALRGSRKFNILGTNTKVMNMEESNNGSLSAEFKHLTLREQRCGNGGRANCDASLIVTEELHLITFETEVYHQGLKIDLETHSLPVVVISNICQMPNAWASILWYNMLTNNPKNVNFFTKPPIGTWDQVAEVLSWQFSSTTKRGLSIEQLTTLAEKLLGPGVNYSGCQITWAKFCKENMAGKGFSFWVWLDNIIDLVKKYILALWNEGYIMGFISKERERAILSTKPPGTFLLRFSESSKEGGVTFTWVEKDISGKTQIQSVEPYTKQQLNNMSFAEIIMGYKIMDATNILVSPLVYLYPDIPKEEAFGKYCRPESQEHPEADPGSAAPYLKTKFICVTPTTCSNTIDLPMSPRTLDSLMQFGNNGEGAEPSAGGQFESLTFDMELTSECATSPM
# UniProt P04637, whole entry: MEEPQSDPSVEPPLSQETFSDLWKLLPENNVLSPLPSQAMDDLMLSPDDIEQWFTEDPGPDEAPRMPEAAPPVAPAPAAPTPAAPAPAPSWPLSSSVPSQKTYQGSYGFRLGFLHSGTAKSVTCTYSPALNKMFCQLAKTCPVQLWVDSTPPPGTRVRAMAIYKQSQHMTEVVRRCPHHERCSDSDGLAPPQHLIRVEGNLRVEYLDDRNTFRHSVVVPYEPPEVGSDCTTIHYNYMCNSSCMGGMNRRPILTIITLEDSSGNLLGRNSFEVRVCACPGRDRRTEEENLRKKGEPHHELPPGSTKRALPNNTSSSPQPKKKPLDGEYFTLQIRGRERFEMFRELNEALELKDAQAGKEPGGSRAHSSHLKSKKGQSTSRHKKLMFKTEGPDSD
# This is a selection; strong and weak results do not stand in their true shares. Inconclusive results are not listed. Activity calls are given as the source filed them. The calls were made as follows, unless noted: active = hit-call score of the fitted dose curve at least 0.9, where 1 is the maximum; inactive = score below 0.9.
# What was measured:
# [1] = ATG_XTT_Cytotoxicity: Cytotoxicity Assessment in the Attagene TRANS-FACTORIAL HepG2 Assay (AID 2283584; active = hit-call score of the fitted dose curve at least 0.9, where 1 is the maximum)
# Outline: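 Viability endpoint from XTT after 24 h chemical exposure of reporter-transfected human HepG2 liver cells; signal loss fitted relative to DMSO negative control.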
# [2] = read-out: succinate dehydrogenase complex iron sulfur subunit B (SDHB), SDHB (gene 6390); experiment: LTEA_HepaRG_SDHB: Life Technologies and Expression Analysis (LTEA) Assay for succinate dehydrogenase complex iron sulfur subunit B (SDHB) using HepaRG (AID 2283528); settings: actives raise or lower the signal; mRNA level, 48 h
# Outline: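 HepaRG, 48 h exposure, 8-pt half-log series from 100 uM in 0.5% DMSO, duplicates. Readout: SDHB mRNA by Fluidigm qRT-PCR vs housekeeping genes; bidirectional fit relative to DMSO.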
# [3] = read-out: Signal transducer and activator of transcription 3 (Homo sapiens) (UniProt P40763); experiment: LTEA_HepaRG_STAT3: Life Technologies and Expression Analysis (LTEA) Assay for Signal transducer and activator of transcription (STAT3) using HepaRG (AID 2283529); settings: actives raise or lower the signal; mRNA level, 48 h
# Outline: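 Differentiated HepaRG cells, serum-free induction medium, dosed 48 h in duplicate, 8 half-log concentrations from 100 uM in 0.5% DMSO. STAT3 mRNA by qRT-PCR, normalised to ACTB, GAPDH, POLR2A; bidirectional fit versus DMSO.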
# [4] = read-out: solute carrier (SLCO1B1), SLCO1B1 (gene 10599); experiment: LTEA_HepaRG_SLCO1B1: Life Technologies and Expression Analysis (LTEA) Assay for solute carrier (SLCO1B1) using HepaRG (AID 2283530); settings: actives raise or lower the signal; mRNA level, 48 h
# Outline: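 SLCO1B1 transcript levels were quantified by TaqMan qRT-PCR using three housekeeping genes for normalization. This followed 48 h chemical exposure (100 uM top, half-log, 8 points, 0.5% DMSO) of HepaRG liver cells, with gain or loss fitted relative to DMSO.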
# [5] = read-out: sulfotransferase 2A1 (SULT2A1), SULT2A1 (gene 6822); experiment: LTEA_HepaRG_SULT2A1: Life Technologies and Expression Analysis (LTEA) Assay for sulfotransferase 2A1 (SULT2A1) using HepaRG (AID 2283531); settings: actives raise or lower the signal; mRNA level, 48 h
# Outline: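 Expression change of SULT2A1, by qRT-PCR with three housekeeping-gene normalization, was scored bidirectionally versus DMSO. Cells: differentiated HepaRG, dosed in duplicate for 48 h across 8 points, highest 100 µM, half-log dilution, 0.5% DMSO.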
# [6] = read-out: Transforming Growth Factor (TGFA), TGFA (gene 7039); experiment: LTEA_HepaRG_TGFA: Life Technologies and Expression Analysis (LTEA) Assay for Transforming Growth Factor (TGFA) using HepaRG (AID 2283532); settings: actives raise or lower the signal; mRNA level, 48 h
# Outline: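 Differentiated HepaRG cells exposed 48 hours in serum-free induction medium, 0.5% DMSO vehicle, 8-point half-log series from 100 uM, in duplicate. TGFA mRNA by TaqMan qRT-PCR, normalised to ACTB, GAPDH, POLR2A; bidirectional fit versus DMSO.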
# [7] = read-out: Transforming Growth Factor (TGFB1), TGFB1 (gene 7040); experiment: LTEA_HepaRG_TGFB1: Life Technologies and Expression Analysis (LTEA) Assay for Transforming Growth Factor (TGFB1) Transporter using HepaRG (AID 2283533); settings: actives raise or lower the signal; mRNA level, 48 h
# Outline: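 TGFB1 transcript measured by qRT-PCR with normalisation to three housekeeping genes (ACTB, GAPDH, POLR2A); human HepaRG line treated in duplicate for 48 hr with an 8-point series topping at 100 uM, 0.5% DMSO vehicle, bidirectionally fitted.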
# TIMP1, TIMP1 (gene 7076) = experiment: LTEA_HepaRG_TIMP1: Life Technologies and Expression Analysis (LTEA) Assay for TIMP1 using HepaRG (AID 2283534); settings: actives raise or lower the signal; mRNA level, 48 h
# Outline: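 Bidirectional change in TIMP1 transcript versus 0.5% DMSO, measured by TaqMan qRT-PCR with three housekeeping genes for normalization. HepaRG human liver cells dosed 48 h in duplicate, top concentration 100 uM with half-log dilutions.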
# [8] = read-out: Tumor necrosis factor receptor 1 (TNFRSF1A), TNFRSF1A (gene 7132); experiment: LTEA_HepaRG_TNFRSF1A: Life Technologies and Expression Analysis (LTEA) Assay for Tumor necrosis factor receptor 1 (TNFRSF1A) using HepaRG (AID 2283535); settings: actives raise or lower the signal; mRNA level, 48 h
# Outline: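 mRNA measured by qRT-PCR (TaqMan, Fluidigm arrays) against ACTB/GAPDH/POLR2A housekeepers after 48 h chemical exposure of HepaRG cells. Top concentration 100 uM, half-log 8-point series, duplicates; vehicle 0.5% DMSO, both fit directions.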
# [9] = read-out: Thyroid Hormone Responsive (THRSP), THRSP (gene 7069); experiment: LTEA_HepaRG_THRSP: Life Technologies and Expression Analysis (LTEA) Assay for Thyroid Hormone Responsive (THRSP) using HepaRG (AID 2283536); settings: actives raise or lower the signal; mRNA level, 48 h
# Outline: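 Differentiated HepaRG cells treated 48 h in serum-free induction medium with 8 half-log concentrations up to 100 uM (0.5% DMSO), duplicates. THRSP mRNA by TaqMan qRT-PCR normalised to ACTB, GAPDH, POLR2A; bidirectional fit versus DMSO.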
# [10] = read-out: Cellular tumor antigen p53 (Homo sapiens) (UniProt P04637); experiment: LTEA_HepaRG_TP53: Life Technologies and Expression Analysis (LTEA) Assay for Tumor Protein P53 (TP53) using HepaRG (AID 2283537); settings: actives raise or lower the signal; mRNA level, 48 h
# Outline: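 HepaRG, 48 h exposure, top 100 uM, half-log 8-point, 0.5% DMSO vehicle, duplicates. Read: TP53 mRNA by TaqMan qRT-PCR, normalised to ACTB/GAPDH/POLR2A; bidirectional fit vs DMSO.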
# [11] = read-out: UDP glucuronosyltransferase (UGT1A1), UGT1A1 (gene 54658); experiment: LTEA_HepaRG_UGT1A1: Life Technologies and Expression Analysis (LTEA) Assay for UDP glucuronosyltransferase (UGT1A1) using HepaRG (AID 2283538); settings: actives raise or lower the signal; mRNA level, 48 h
# Outline: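 Readout is UGT1A1 transcript level by qRT-PCR, normalized to three housekeeping genes, after 48 h chemical treatment of HepaRG cells. Concentrations ran from 100 uM down in half-log steps with 0.5% DMSO, and gain or loss relative to DMSO was fitted.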
# [12] = read-out: UDP glucuronosyltransferase (UGT1A6), UGT1A6 (gene 54578); experiment: LTEA_HepaRG_UGT1A6: Life Technologies and Expression Analysis (LTEA) Assay for UDP glucuronosyltransferase (UGT1A6) using HepaRG (AID 2283539); settings: actives raise or lower the signal; mRNA level, 48 h
# Outline: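 Expression was quantified by TaqMan qRT-PCR on Fluidigm arrays with ACTB/GAPDH/POLR2A normalization and bidirectional fitting against 0.5% DMSO. HepaRG cells (~100,000/well) were treated in duplicate for 48 h at eight half-log concentrations up to 100 uM in serum-free induction medium.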
# [13] = read-out: X-box binding protein 1 (XBP1), XBP1 (gene 7494); experiment: LTEA_HepaRG_XBP1: Life Technologies and Expression Analysis (LTEA) Assay for X-box binding protein 1 (XBP1) using HepaRG (AID 2283540); settings: actives raise or lower the signal; mRNA level, 48 h
# Outline: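 XBP1 transcript by qRT-PCR (housekeeping-normalized: ACTB, GAPDH, POLR2A) after 48 h chemical treatment of HepaRG cells, 8-point half-log series topping at 100 uM, vehicle 0.5% DMSO. Gain and loss of signal fitted relative to DMSO.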
# [14] = LTEA_HepaRG_LDH_cytotoxicity: Cytotoxicity Assessment in the Life Technologies and Expression Analysis (LTEA) Assay (AID 2283563; active = hit-call score of the fitted dose curve at least 0.9, where 1 is the maximum)
# Outline: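 LDH release into culture medium read after 48 h chemical treatment of HepaRG cells. Duplicate wells, eight-point half-log series topping at 100 uM, 0.5% DMSO vehicle and baseline.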
# [15] = Tanguay_ZF_120hpf_MORT_legacy: (Legacy) Oregon State University Tanguay Lab 120 Hour Post-fertilization zebrafish Assay for Mortality (AID 2283633; active = hit-call score of the fitted dose curve at least 0.9, where 1 is the maximum;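 as to AC50: fitted as increase in binary mortality versus DMSO negative control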)
# Outline: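 Static waterborne exposure from 6 to 120 hpf at 28C of single dechorionated wild-type (5D) embryos per well, 0.64% DMSO final. Death recorded present/absent by brightfield at 24 and 120 hpf.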
# [16] = Tanguay_ZF_120hpf_YSE_legacy: (Legacy) Oregon State University Tanguay Lab 120 Hour Post-fertilization zebrafish Assay for Yolk Sac Edema (AID 2283634; active = hit-call score of the fitted dose curve at least 0.9, where 1 is the maximum)
# Outline: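 Presence or absence of yolk sac edema was recorded at 120 hpf in surviving larvae. These were wild-type Tropical 5D embryos, chorion removed at 4 hpf, held in static exposure at 28C from 6 hpf with 0.64% DMSO vehicle.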
# [17] = Tanguay_ZF_120hpf_AXIS_legacy: (Legacy) Oregon State University Tanguay Lab 120 Hour Post-fertilization zebrafish Assay for Body Axis Malformation (AID 2283635; active = hit-call score of the fitted dose curve at least 0.9, where 1 is the maximum)
# Outline: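 Binary scoring of axis defects at 120 hpf under brightfield, fitted positive versus DMSO. Tropical 5D embryos, chorion removed by pronase at 4 hpf, were singly exposed in sealed, dark plates at 28C from 6 hpf; DMSO 0.64% final.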
# [18] = Tanguay_ZF_120hpf_EYE_legacy: (Legacy) Oregon State University Tanguay Lab 120 Hour Post-fertilization zebrafish Assay for Eye Malformation (AID 2283636; active = hit-call score of the fitted dose curve at least 0.9, where 1 is the maximum;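 also: binary presence or absence of eye malformation scored by brightfield in 120 hpf larvae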)
# Outline: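 Dechorionated Tropical 5D zebrafish embryos, one per well from 6 hpf, static exposure to 120 hpf at 28C, 0.64% DMSO. Eye malformation scored present/absent by brightfield; dead embryos not scored.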
# [19] = Tanguay_ZF_120hpf_SNOU_legacy: (Legacy) Oregon State University Tanguay Lab 120 Hour Post-fertilization zebrafish Assay for Snout Malformation (AID 2283637; active = hit-call score of the fitted dose curve at least 0.9, where 1 is the maximum)
# Outline: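 Dechorionated tropical 5D wild-type zebrafish embryos exposed statically from 6 to 120 hpf at 28C, one per well, in 0.64% DMSO. Snout malformation scored as present/absent by brightfield at 120 hpf; dead embryos not scored.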
compound,measurement,setting,value
CN(C)CCCl,outcome,[1],inactive
O=[N+]([O-])OCC(CO[N+](=O)[O-])(CO[N+](=O)[O-])CO[N+](=O)[O-],outcome,[1],inactive
CC(C)OP(C)(=O)OC(C)C,outcome,[2],inactive
same,outcome,[3],inactive
same,outcome,[4],inactive
same,outcome,[5],inactive
same,outcome,[6],inactive
same,outcome,[7],inactive
same,outcome,"TIMP1, TIMP1 (gene 7076)",inactive
same,outcome,[8],inactive
same,outcome,[9],inactive
same,outcome,[10],inactive
same,outcome,[11],inactive
same,outcome,[12],inactive
same,outcome,[13],inactive
same,outcome,[14],inactive
same,outcome,[1],inactive
same,outcome,[15],inactive
same,outcome,[16],inactive
same,outcome,[17],inactive
same,outcome,[18],inactive
same,outcome,[19],inactive
O=[N+]([O-])c1cccc([N+](=O)[O-])c1,outcome,[2],inactive
same,outcome,[3],inactive
same,outcome,[4],inactive
same,outcome,[5],inactive
same,outcome,[6],inactive
same,outcome,[7],inactive
same,outcome,"TIMP1, TIMP1 (gene 7076)",inactive
same,outcome,[8],inactive
same,outcome,[9],inactive
same,outcome,[10],inactive
same,outcome,[11],inactive
same,outcome,[12],inactive
same,outcome,[13],inactive
same,outcome,[14],inactive
same,outcome,[16],inactive
same,outcome,[17],inactive
same,outcome,[18],inactive
same,outcome,[19],inactive
Cc1c([N+](=O)[O-])cccc1[N+](=O)[O-],outcome,[2],inactive
same,outcome,[3],inactive
same,outcome,[4],inactive
same,outcome,[5],inactive
same,outcome,[6],inactive
same,outcome,[7],inactive
same,outcome,"TIMP1, TIMP1 (gene 7076)",inactive
same,outcome,[8],inactive
same,outcome,[9],inactive
same,outcome,[11],inactive
same,outcome,[12],inactive
same,outcome,[13],inactive
same,outcome,[14],inactive
same,outcome,[1],inactive
same,outcome,[15],inactive
same,outcome,[16],inactive
same,outcome,[17],inactive
same,outcome,[18],inactive
same,outcome,[19],inactive
COc1ccc([N+](=O)[O-])cc1[N+](=O)[O-],outcome,[1],inactive
Cc1ccc([N+](=O)[O-])cc1[N+](=O)[O-],outcome,[2],inactive
same,outcome,[3],inactive
same,outcome,[4],inactive
same,outcome,[5],inactive
same,outcome,[6],inactive
same,outcome,[7],inactive
same,outcome,"TIMP1, TIMP1 (gene 7076)",inactive
same,outcome,[8],inactive
same,outcome,[9],inactive
same,outcome,[10],inactive
same,AC50,[11],active: 50 µM
same,outcome,[12],inactive
same,outcome,[13],inactive
same,outcome,[14],inactive
same,outcome,[1],inactive
same,outcome,[15],inactive
same,outcome,[16],inactive
same,outcome,[18],inactive
same,outcome,[19],inactive
Cc1ccc([N+](=O)[O-])c([N+](=O)[O-])c1,outcome,[1],inactive
Cc1cccc([N+](=O)[O-])c1[N+](=O)[O-],outcome,[2],inactive
same,outcome,[3],inactive
same,outcome,[4],inactive
same,outcome,[5],inactive
same,outcome,[6],inactive
same,outcome,[7],inactive
same,outcome,"TIMP1, TIMP1 (gene 7076)",inactive
same,outcome,[8],inactive
same,outcome,[9],inactive
same,outcome,[10],inactive
same,outcome,[11],inactive
same,outcome,[12],inactive
same,outcome,[13],inactive
same,outcome,[14],inactive
same,outcome,[1],inactive
same,AC50,[15],active: 26.5 µM
same,outcome,[16],inactive
same,outcome,[17],inactive
same,outcome,[18],inactive
same,outcome,[19],inactive
N#CBr,outcome,[1],inactive
COP(C)(=O)OC,outcome,[1],inactive
